# Test results reported in PubChem BioAssay AID504800 (The Scripps Research Institute Molecular Screening Center, 2011).
# Only a part is listed here, and it is no random draw. Calls of active or inactive are those of the source.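 Rule for the calls: active = mean activation over replicate wells exceeds the adjusted hit threshold taken from the earlier primary screen (cut at about 20% in these data); inactive = the rest.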
# Molecular target: cAMP-dependent protein kinase type I-alpha regulatory subunit (Bos taurus) (UniProt P00514)
# Assay: activators of PKA-R1A holoenzyme, confirmation, biochemical, fluorescence polarization, Cy5-IP20, triplicate (AID 504800);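 note: 0% = holoenzyme mix with DMSO only and 100% = cGMP-activated control wells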
# Settings: PKA-R1A holoenzyme dissociation, at 11.4 µM, hits give high values
smiles,measurement,value
CC(C)c1ccc(OP(=O)(Nc2ccccn2)Oc2ccccc2F)cc1 (stereo unspecified),activation,inactive: -1.33%
